According to patent publication US10266496B2, “Carboxy substituted (hetero) aromatic ring derivatives and preparation method and uses thereof” (SUNSHINE LAKE PHARMA CO., LTD., priority 2015, dated 2019):
pIC50: −log10 of the molar value.

Protein sequences, listed by entry. Tags and fused reporters are not part of them. Lines headed by an entry give the natural chain unless they say otherwise; changes in a name come on top.
UniProt Q96S37: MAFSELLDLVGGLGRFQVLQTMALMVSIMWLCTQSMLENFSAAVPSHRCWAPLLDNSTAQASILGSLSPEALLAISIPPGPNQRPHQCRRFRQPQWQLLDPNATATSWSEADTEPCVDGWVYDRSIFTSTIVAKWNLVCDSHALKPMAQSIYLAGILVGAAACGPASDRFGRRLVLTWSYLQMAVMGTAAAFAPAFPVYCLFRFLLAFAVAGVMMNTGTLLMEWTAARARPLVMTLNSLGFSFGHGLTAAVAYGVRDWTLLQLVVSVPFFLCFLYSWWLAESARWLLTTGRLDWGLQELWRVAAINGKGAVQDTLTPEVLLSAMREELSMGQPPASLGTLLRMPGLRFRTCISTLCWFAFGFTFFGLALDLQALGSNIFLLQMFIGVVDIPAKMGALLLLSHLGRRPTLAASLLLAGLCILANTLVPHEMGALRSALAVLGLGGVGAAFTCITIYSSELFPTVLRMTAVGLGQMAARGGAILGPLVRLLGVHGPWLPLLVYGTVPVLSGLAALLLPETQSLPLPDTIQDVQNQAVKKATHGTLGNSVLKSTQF

Target: hURAT1 (Homo sapiens (Human), UniProt Q96S37)
Assay: URAT1 (urate anion transporter) inhibition activity assay: [8-14C] uric acid absorption inhibition in HEK293T cell line stably expressing hURAT1
Assay type: cell-based
Conditions: [8-14C] uric acid uptake, HEK293T cells stably expressing hURAT1

pIC50: 7.82
Structure (SMILES): N#Cc1cc(-c2ccc(C(=O)O)c(O)c2)c2cc(F)sc2c1 [Example 30, 4-(6-cyano-2-fluorobenzo[b]thiophen-4-yl)-2-hydroxybenzoic Acid]
